Data on 77 compounds can be found in PubChem BioAssay AID651636 (Sanford-Burnham Center for Chemical Genomics, 2012).

The chains behind the UniProt entries cited, without tags or fusion partners.
UniProt P32249, whole entry, looked up: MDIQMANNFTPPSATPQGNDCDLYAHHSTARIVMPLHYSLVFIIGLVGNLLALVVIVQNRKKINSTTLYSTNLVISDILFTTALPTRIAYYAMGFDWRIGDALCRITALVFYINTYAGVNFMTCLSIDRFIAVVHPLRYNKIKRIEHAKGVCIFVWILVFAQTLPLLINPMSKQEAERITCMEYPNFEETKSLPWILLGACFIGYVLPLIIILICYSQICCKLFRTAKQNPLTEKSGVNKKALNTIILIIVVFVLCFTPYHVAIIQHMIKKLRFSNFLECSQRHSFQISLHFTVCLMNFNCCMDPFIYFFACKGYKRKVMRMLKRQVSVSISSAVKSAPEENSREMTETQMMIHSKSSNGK

The entries are a selection whose mix differs from that of the whole data set. Active and inactive are the calls of the source. No stated cut-off is given here; in the data, active means inhibition above about 38%; inactive means the rest.

For this assay, the target named is G-protein coupled receptor 183 (Homo sapiens) (UniProt P32249). Nature of the assay: blockers of oxysterol-driven EBI2 arrestin signaling – cell-based, luminescence, 7a,25-OHC stimulation, uHTS, primary screen (AID 651636).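 Further: enzyme fragment complementation signal reports receptor beta-arrestin coupling in cells; 0% = agonist plus DMSO wells and 100% = wells without agonist.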 As to conditions: EBI2 beta-arrestin recruitment, 7a,25-OHC stimulated, at 5 µM, stronger effect = higher value.
Turning to `CC(C)=N/N=C(\N)N[N+](=O)[O-]`, the inhibition is inactive: 0.148%.

Take `CC1CCN(C(=O)Oc2c(Cl)cc(Cl)c3cccnc23)CC1`: the inhibition is inactive: -1.32%.

Take `c1cc(-c2nn[nH]n2)ccc1-c1nn[nH]n1`: the inhibition was inactive: 4.13%.

With `C[N+]1=C2C=CC=CC=C2SC12C([N+](=O)[O-])=CC([N+](=O)[O-])=C[C-]2[N+](=O)[O-]` (configuration not stated), the inhibition is inactive: 32.9%.

Regarding `Nc1ccc([As](=O)(O)c2ccc(N)cc2)cc1`, the inhibition is inactive: 9.9%.

`CCN(/C(=N/P(=O)(N1CCOCC1)N1CCOCC1)N1CCOCC1)c1ccc(OC)cc1`: the inhibition was inactive: -0.304%.

With `CC(=O)N1C2C3N(C(C)=O)C1C1N(C(C)=O)C(C(N1C(C)=O)N3C(C)=O)N2C(C)=O`, the inhibition is inactive: -7.7%.

Regarding `O=[N+]([O-])c1cccc2n[nH]nc12`, the inhibition was inactive: -9.01%.

In the case of `O=[N+]([O-])c1cc([N+](=O)[O-])c(CCNc2ccccc2)c([N+](=O)[O-])c1`, the inhibition is inactive: 3.3%.

On to `CCc1nc2c(n1)c1c(non1O)c1c2no[n+]1[O-]`, for which the inhibition was inactive: -9.91%.

With `Cc1ccc(NP(=O)(Oc2ccccc2)Oc2ccccc2)nc1`, the inhibition is inactive: -5.99%.

`COc1ccc(C2=NCC(CBr)S2)cc1` (configuration not stated): the inhibition is inactive: 2.95%.

Regarding `O=[N+]([O-])C1C(O)C(O)C([N+](=O)[O-])C(O)C1O` (configuration not stated), the inhibition is inactive: -3.02%.

With `Nc1cc(N)c2nonc2c1[N+](=O)[O-]`, the inhibition is inactive: -6.22%.

Take `CC(C)CC(=O)NC(Sc1ccc(Cl)cc1)C(Cl)(Cl)Cl` (configuration not stated): the inhibition was inactive: 8.9%.

For the compound `O=C(NC(Sc1ccncn1)C(Cl)(Cl)Cl)c1ccccc1` (configuration not stated), the inhibition was inactive: -7.13%.

`Oc1ccccc1CNc1ccccn1`: the inhibition was inactive: -4.72%.

Regarding `Cc1ccc(OP(=O)(Nc2nccs2)Oc2ccc(C)cc2)cc1`, the inhibition is inactive: -0.497%.

Turning to `COc1ccccc1OP(=O)(Nc1ccc(C)cn1)Oc1ccccc1OC`, the inhibition is inactive: -2.5%.

For `CN1CCCC(OC(=O)C(c2ccccc2)c2ccccc2)C1` (configuration not stated), the inhibition is inactive: -4.71%.

On to `Clc1ccc(Cl)c(NC2=NCC(CBr)S2)c1` (configuration not stated), for which the inhibition was inactive: -9.25%.

For the compound `NC(=O)c1cc([N+](=O)[O-])cc([N+](=O)[O-])c1N`, the inhibition was inactive: -2.05%.

Regarding `Cc1ccc(N/C(=N/P(=O)(N2CCOCC2)N2CCOCC2)N2CCOCC2)cc1`, the inhibition is inactive: -2.11%.

With `CN(C(=O)Cc1ccc(Cl)c(Cl)c1)[C@H]1CCCC[C@H]1N1CCCC1`, the inhibition is inactive: -3.84%.

Consider `CCN(N=Nc1nonc1N)c1nonc1N`, for which the inhibition was inactive: -14.1%.

`Nc1cccc2ccc([As](=O)(O)O)cc12`: the inhibition is inactive: 3.47%.

For the compound `CN(C(=O)Cc1ccc(Cl)c(Cl)c1)[C@H]1CCCC[C@@H]1N1CCCC1`, the inhibition was inactive: 1.23%.

On to `Cc1ccc(NP(=O)(Oc2ccccc2F)Oc2ccccc2F)nc1`, for which the inhibition was inactive: -2.49%.

Consider `Cc1cc(SC(NC(=O)c2ccc(F)cc2)C(Cl)(Cl)Cl)ncn1` (configuration not stated), for which the inhibition was inactive: -13.6%.

For the compound `CCOP(=O)(Nc1ccccc1)OCC`, the inhibition is inactive: -3.98%.

For the compound `CCCC1OP(N)(=O)OCC1CC` (configuration not stated), the inhibition is inactive: 3.95%.

Take `CC(=O)Nc1ccc([As](=O)(O)O)cc1`: the inhibition is inactive: -2.98%.

For the compound `O=C(O)c1ccccc1[As](=O)(O)O`, the inhibition was inactive: 1.5%.

On to `O=P(Nc1nc2ccc(Cl)cc2s1)(c1ccccc1)c1ccccc1`, for which the inhibition is inactive: 1.35%.

Regarding `CN(C)P(=O)(N(C)C)n1c(Nc2ccccc2)nnc1-c1ccccc1`, the inhibition was inactive: -0.116%.

On to `O=c1c2cc([N+](=O)[O-])ccc2[nH]c2c([N+](=O)[O-])cc([N+](=O)[O-])cc12`, for which the inhibition was inactive: 38.5%.

As to `CN(C)C(=O)Oc1noc2ccccc12`, the inhibition is inactive: 4.27%.

In the case of `CC(NC(=O)COC(=O)C(O)(c1ccccc1)c1ccccc1)c1ccccc1` (configuration not stated), the inhibition was inactive: 9.26%.

`Cc1ccccc1OP(=O)(Nc1ccccn1)Oc1ccccc1C`: the inhibition is inactive: -4.54%.

Take `CC(=O)NC(SC(=S)N(CC(C)C)CC(C)C)C(Cl)(Cl)Cl` (configuration not stated): the inhibition is inactive: 7.44%.

In the case of `Cc1ccc(OP(=O)(Nc2ccccn2)Oc2ccc(C)cc2)cc1`, the inhibition was inactive: -8.65%.

For the compound `COC(=O)c1cc2c(s1)N=C(c1ccccc1)N(C)P2(=O)N1CCOCC1` (configuration not stated), the inhibition was inactive: -10.3%.

`CCC(=O)N1C2C3N(C(=O)CC)C1C1N(C(=O)CC)C(C(N1C(=O)CC)N3C(=O)CC)N2C(=O)CC`: the inhibition was inactive: -9.24%.

With `O=C(OC1CN2CCC1CC2)c1ccccc1` (configuration not stated), the inhibition is inactive: -3.93%.

With `O=P1(N(CCCl)CCCl)OCCC2CCCCN21` (configuration not stated), the inhibition is inactive: -7.46%.

With `O=C(NC1CCS(=O)(=O)C1)NP(=S)(Oc1ccccc1)Oc1ccccc1` (configuration not stated), the inhibition is inactive: 23.2%.

As for `CCNC(=S)/N=C(\N)N[N+](=O)[O-]`, the inhibition was inactive: 13.6%.

For `Cc1ccc(NP(=O)(Oc2cccc(C)c2)Oc2cccc(C)c2)nc1`, the inhibition was inactive: 2.99%.

As to `c1ccc(-c2nn[nH]n2)c(-c2nn[nH]n2)c1`, the inhibition was inactive: 4.09%.

Consider `CC(=O)Nc1ccc(Oc2c([N+](=O)[O-])cc([N+](=O)[O-])cc2[N+](=O)[O-])cc1`, for which the inhibition was inactive: -5.35%.

Regarding `CC(=O)Nc1ccc([As](=O)(O)O)c(O)c1`, the inhibition is inactive: -3.12%.

With `COC(=O)C1(C)COP(=O)(NCc2ccccc2)OC1` (configuration not stated), the inhibition is inactive: -13.4%.

As for `CC(=O)c1ccc(N2CC2c2ccncc2)cc1` (configuration not stated), the inhibition is inactive: -0.702%.

For the compound `N#C/C(=C\c1ccc(N(CCBr)CCBr)cc1)C(N)=O`, the inhibition was inactive: -5.95%.

As to `C[C@H]1OP(=O)(Oc2ccccc2)C[C@@H]2O[C@@H]21` (some centres not stated), the inhibition was inactive: -0.626%.

Take `C[C@@H]1C=CCP(=O)(Oc2ccccc2)O1` (some centres not stated): the inhibition is inactive: -5.2%.

Consider `Cc1ccccc1CN(C)C(=O)COC(=O)C(O)(c1ccccc1)c1ccccc1`, for which the inhibition is inactive: -1.54%.

For `CCc1cc(O)c([N+](=O)[O-])c(C)c1[N+](=O)[O-]`, the inhibition is inactive: -4.22%.

As for `CC(C)(C)C(=O)NC(Sc1ccccc1)C(Cl)(Cl)Cl` (configuration not stated), the inhibition was inactive: 7.14%.

As for `CCOc1ccc(C2=NCC(CBr)S2)cc1` (configuration not stated), the inhibition is inactive: 1.24%.

Consider `O=P1(Nc2nc3ccc(Cl)cc3s2)COc2ccccc2O1` (configuration not stated), for which the inhibition was inactive: -1.68%.

With `c1nnnn1CCn1cnnn1`, the inhibition is inactive: 1.69%.

Consider `O=P(Nc1nccs1)(c1ccccc1)c1ccccc1`, for which the inhibition is inactive: -1.27%.

Consider `CC(C)C(=O)NC(Sc1ccccc1)C(Cl)(Cl)Cl` (configuration not stated), for which the inhibition was inactive: -5.02%.

For `C(Cc1nn[nH]n1)Cc1nn[nH]n1`, the inhibition was inactive: -2.86%.

As to `Nc1ccc([As](=O)(O)c2ccc([N+](=O)[O-])cc2)cc1`, the inhibition is inactive: -0.195%.

Turning to `O=C(OC1CN2CCC1CC2)c1cccc(Cl)c1` (configuration not stated), the inhibition is inactive: -16%.

For the compound `CC(=O)NC(SC(=S)N(C)C)C(Cl)(Cl)Cl` (configuration not stated), the inhibition was inactive: 1.98%.

Consider `O=[N+]([O-])c1ncn(CCn2cnc([N+](=O)[O-])n2)n1`, for which the inhibition was inactive: -22.5%.

Turning to `O=[N+]([O-])c1ccc(O)c(/C=N/Nc2ccc([N+](=O)[O-])cc2[N+](=O)[O-])c1`, the inhibition is inactive: -2.99%.

Regarding `O=[As](O)(c1ccccc1)c1ccc(O)cc1`, the inhibition was inactive: -2.08%.

Turning to `C[C@H]1OP(=O)(Oc2ccccc2)[C@H](O)[C@H](O)[C@H]1N=[N+]=[N-]` (some centres not stated), the inhibition is inactive: -9.39%.

In the case of `O=P(Nc1nc2ccccc2s1)(c1ccccc1)c1ccccc1`, the inhibition is inactive: 4.6%.

In the case of `COc1ccc(N)c([N+](=O)[O-])c1[N+](=O)[O-]`, the inhibition is inactive: -0.754%.

As for `Nc1ccc(CCCCOc2ccccc2)cc1`, the inhibition is inactive: 16.3%.

As to `CN(C)C1(CNC(=O)c2ccc(Cl)c(S(N)(=O)=O)c2)CCCCC1`, the inhibition was inactive: -13.4%.

With `O=P(Nc1ccccn1)(c1ccc(Br)cc1)c1ccc(Br)cc1`, the inhibition was inactive: 5.11%.
